Data on 1 molecule can be found in ChEMBL document CHEMBL5725611, “N-substituted benzamides and methods of use thereof” (2018).

Protein sequences, listed by entry. Tags and fused reporters are not part of them.
UniProt Q15858, whole entry: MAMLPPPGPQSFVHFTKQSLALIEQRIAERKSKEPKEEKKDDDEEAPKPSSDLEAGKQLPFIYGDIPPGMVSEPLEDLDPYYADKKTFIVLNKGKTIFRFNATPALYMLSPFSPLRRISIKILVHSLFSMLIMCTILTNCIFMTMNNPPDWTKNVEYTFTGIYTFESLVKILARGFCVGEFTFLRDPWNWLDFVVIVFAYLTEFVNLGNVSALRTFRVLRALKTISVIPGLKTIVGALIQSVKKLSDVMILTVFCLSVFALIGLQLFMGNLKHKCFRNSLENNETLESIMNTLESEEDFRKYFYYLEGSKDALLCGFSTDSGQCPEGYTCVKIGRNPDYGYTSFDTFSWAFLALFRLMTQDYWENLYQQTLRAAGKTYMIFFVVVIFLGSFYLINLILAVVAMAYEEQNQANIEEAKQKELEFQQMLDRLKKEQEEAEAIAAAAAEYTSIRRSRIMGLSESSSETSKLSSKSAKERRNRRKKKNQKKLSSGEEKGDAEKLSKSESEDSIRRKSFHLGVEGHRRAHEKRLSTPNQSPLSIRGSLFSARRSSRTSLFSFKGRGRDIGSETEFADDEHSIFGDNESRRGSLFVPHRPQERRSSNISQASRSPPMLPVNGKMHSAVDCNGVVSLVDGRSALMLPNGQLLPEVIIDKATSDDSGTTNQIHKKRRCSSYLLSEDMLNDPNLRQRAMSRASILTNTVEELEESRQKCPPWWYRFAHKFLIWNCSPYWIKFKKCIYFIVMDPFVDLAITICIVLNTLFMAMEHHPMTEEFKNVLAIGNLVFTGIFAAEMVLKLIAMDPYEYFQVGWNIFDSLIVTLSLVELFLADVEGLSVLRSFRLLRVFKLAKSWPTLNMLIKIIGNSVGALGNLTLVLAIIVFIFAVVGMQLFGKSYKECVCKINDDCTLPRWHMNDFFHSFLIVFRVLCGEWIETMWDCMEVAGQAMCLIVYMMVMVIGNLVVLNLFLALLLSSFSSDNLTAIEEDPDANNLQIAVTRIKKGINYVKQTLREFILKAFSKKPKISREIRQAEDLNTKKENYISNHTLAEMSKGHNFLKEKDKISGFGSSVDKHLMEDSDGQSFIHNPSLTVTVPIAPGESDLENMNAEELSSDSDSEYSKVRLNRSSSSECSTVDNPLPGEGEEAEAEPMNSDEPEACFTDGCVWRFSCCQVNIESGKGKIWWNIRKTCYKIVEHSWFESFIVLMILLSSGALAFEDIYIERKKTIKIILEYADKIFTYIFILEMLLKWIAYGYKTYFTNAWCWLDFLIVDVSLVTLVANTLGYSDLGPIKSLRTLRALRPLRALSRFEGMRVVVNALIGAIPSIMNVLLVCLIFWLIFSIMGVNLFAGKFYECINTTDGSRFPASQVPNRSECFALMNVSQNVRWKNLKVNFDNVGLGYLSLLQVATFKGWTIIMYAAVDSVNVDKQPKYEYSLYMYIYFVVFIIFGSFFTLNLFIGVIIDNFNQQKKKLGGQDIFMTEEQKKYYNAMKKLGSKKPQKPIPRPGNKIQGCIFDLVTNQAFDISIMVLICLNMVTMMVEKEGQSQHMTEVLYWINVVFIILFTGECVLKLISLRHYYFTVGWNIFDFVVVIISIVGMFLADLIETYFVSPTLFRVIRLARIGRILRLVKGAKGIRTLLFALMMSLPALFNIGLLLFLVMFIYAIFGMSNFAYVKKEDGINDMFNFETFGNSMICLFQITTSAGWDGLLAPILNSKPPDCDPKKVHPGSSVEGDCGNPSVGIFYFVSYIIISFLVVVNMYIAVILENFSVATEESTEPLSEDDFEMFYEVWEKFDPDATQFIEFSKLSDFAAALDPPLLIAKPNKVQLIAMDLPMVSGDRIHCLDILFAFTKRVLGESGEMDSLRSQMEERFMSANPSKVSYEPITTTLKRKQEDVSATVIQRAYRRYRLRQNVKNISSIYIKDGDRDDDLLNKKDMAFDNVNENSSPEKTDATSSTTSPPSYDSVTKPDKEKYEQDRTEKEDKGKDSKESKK

Molecules are shown by their SMILES.

For experiment [1], the target named is T1, Sodium channel protein type 9 subunit alpha (Homo sapiens, UniProt Q15858). The experiment is described as follows: Electrophysiological Assay (In Vitro Assay): Patch voltage clamp electrophysiology allows for the direct measurement and quantification of block of voltage-gated sodium channels (NaV's), and allows the determination of the time- and voltage-dependence of block which has been interpreted as differential binding to the resting, open, and inactivated states of the sodium channel (Hille, B., Journal of General Physiology (1977), 69: 497-515).The following patch voltage clamp electrophysiology studies were performed on representative compounds of the invention using human embryonic kidney cells (HEK), permanently transfected with an expression vector containing the full-length cDNA coding for the desired human sodium channel α-subunit, grown in culture media containing 10% FBS, 1% PSG, and 0.5 mg/mL G418 at 37° C. with 5% CO2. […] NaV1.7 and NaV1.5 cDNAs (NM_002977 and AC137587; SCN5A, respectively) were stably expressed in HEK-293 cells. The β1 subunit was coexpressed in both the NaV1.7 and NaV1.5 cell lines.Sodium currents were measured using the patch clamp technique in the whole-cell configuration using either a PatchXpress automated voltage clamp or manually using an Axopatch 200B (Axon Instruments) or Model 2400 (A-M systems) amplifier. […]. The class given is cell-based. (The patch-clamp technique gives a direct electrical read-out from membranes.)

Experiment [2] deals with T1, Sodium channel protein type 9 subunit alpha. As to the kind of experiment: Binding Assay: Preparation of membranes containing recombinantly expressed sodium channels: Frozen recombinant cell pellets were thawed on ice and diluted to 4 times the cell pellet weight with ice cold 50 mM Tris HCl, pH 7.4 buffer. The cell suspensions were homogenized on ice using a motorized glass dounce homogeniser. […] The supernatants were collected and centrifuged at 10000×g at 4° C. for 50 min. The pellets were then re-suspended in 100 mM NaCl, 20 mM Tris HCl, pH 7.4 buffer containing 1% v/v protease inhibitors (Calbiochem) and re-homogenized on ice. The homogenized membranes were then processed through a syringe equipped with a 26 gauge needle. Protein concentrations were determined by Bradford Assay and the membranes were stored at −80° C.Radioligand Binding Studies: Saturation experiments. A representative compound of formula (I) was tritiated. Three tritiums were incorporated in place of methyl hydrogens to generate [3H]compound. Binding of this radioligand was performed in 5 mL borosilicate glass test tubes at room temperature. Binding was initiated by adding membranes to increasing concentrations of [3H]compound in 100 mM NaCl, 20 mM Tris HCl, pH 7.4 buffer containing 0.01% w/v bovine serum albumin (BSA) for 18 h. Non-specific binding was determined in the presence of 1 μM unlabelled compound. […].

Consider `COC(=O)C1CCN(S(=O)(=O)NC(=O)c2cc(Cl)c(Oc3cnc(OCC(C)C)c(Cl)c3)cc2F)CC1`, for which the values for the IC50 in experiment [1] and in experiment [2] were 218 nM and 1590 nM, respectively.
